# CycPeptMPDB entries from one study

Data: CycPeptMPDB; original report Townsend et al. 2020, doi:10.26434/chemrxiv.13335941.v1.

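Lipid, pH, incubation time, direction and concentration are not recorded in the data file. Other peptides of the study may be missing here. Peptides that the database sets to -10, its floor, are left out.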

PAMPA measures passive passage through an artificial lipid membrane. P is given in units of 10^-6 cm/s (from log10 values with two decimals); larger means faster passage.

- CC(C)C[C@@H]1C(=O)N[C@@H](Cc2ccccc2)C(=O)N2CCC[C@H]2C(=O)N(C)[C@@H](C)C(=O)N(C)[C@@H](CC(C)C)C(=O)N[C@H](CC(C)C)C(=O)N2CCC[C@@H]2C(=O)N1C: PAMPA 1.5 × 10^-6 cm/s
- CC(C)C[C@H]1NC(=O)[C@@H](C)NC(=O)[C@H]2CCCN2C(=O)[C@H](Cc2ccccc2)NC(=O)CN(Cc2ccccc2)C(=O)[C@H]2CCCN2C(=O)[C@@H](CC(C)C)NC1=O: PAMPA 0.33 × 10^-6 cm/s
- CC(C)C[C@@H]1NC(=O)C[C@H](Cc2ccccc2)NC(=O)[C@H]2CCCN2C(=O)[C@H](Cc2ccccc2)NC(=O)[C@@H](CC(C)C)N(C)C(=O)[C@@H]2CCCN2C(=O)[C@@H](CC(C)C)N(C)C1=O: PAMPA 3.8 × 10^-6 cm/s
- CC(C)C[C@@H]1NC(=O)[C@H]2CCCN2C(=O)CN(Cc2ccccc2)C(=O)[C@@H](CC(C)C)NC(=O)[C@@H](C)N(C)C(=O)[C@@H]2CCCN2C(=O)[C@H](Cc2ccccc2)NC1=O: PAMPA 1 × 10^-6 cm/s
- CC(C)C[C@H]1NC(=O)[C@@H](C)NC(=O)[C@H]2CCCN2C(=O)[C@H](Cc2ccccc2)NC(=O)[C@H](CC(C)C)N(C)C(=O)[C@@H]2CCCN2C(=O)CN(Cc2ccccc2)C1=O: PAMPA 0.89 × 10^-6 cm/s
- CCCN1CC(=O)N[C@@H](CC(C)C)C(=O)N(C)[C@H](CC(C)C)C(=O)N2CCC[C@@H]2C(=O)N(Cc2ccccc2)CC(=O)N[C@@H](Cc2ccccc2)C(=O)N2CCC[C@H]2C1=O: PAMPA 1.2 × 10^-6 cm/s
- CC(C)C[C@H]1NC(=O)[C@@H](C)NC(=O)[C@@H]2CCCN2C(=O)[C@H](Cc2ccccc2)NC(=O)CN(Cc2ccccc2)C(=O)[C@H]2CCCN2C(=O)[C@H](CC(C)C)N(C)C1=O: PAMPA 1.6 × 10^-6 cm/s
- CC(C)C[C@@H]1NC(=O)[C@@H]2CCCN2C(=O)CN(Cc2ccccc2)C(=O)[C@@H](CC(C)C)N(C)C(=O)[C@@H](C)N(C)C(=O)[C@@H]2CCCN2C(=O)[C@H](Cc2ccccc2)NC1=O: PAMPA 0.19 × 10^-6 cm/s
- CC(C)C[C@H]1C(=O)N(Cc2ccccc2)CC(=O)N2CCC[C@@H]2C(=O)N(C)[C@@H](CC(C)C)C(=O)N[C@@H](Cc2ccccc2)C(=O)N2CCC[C@H]2C(=O)N(C)[C@H](C)C(=O)N1C: PAMPA 5.4 × 10^-6 cm/s
- CC(C)C[C@@H]1NC(=O)[C@@H](C)NC(=O)[C@H]2CCCN2C(=O)[C@H](Cc2ccccc2)NC(=O)CN(Cc2ccccc2)C(=O)[C@@H]2CCCN2C(=O)[C@@H](CC(C)C)N(C)C1=O: PAMPA 1.9 × 10^-6 cm/s
- CCCN1CC(=O)N(Cc2ccccc2)CC(=O)N[C@@H](CC(C)C)C(=O)N2CCC[C@@H]2C(=O)N(C)[C@@H](CC(C)C)C(=O)N[C@@H](Cc2ccccc2)C(=O)N2CCC[C@@H]2C1=O: PAMPA 9.5 × 10^-6 cm/s
- CC(C)C[C@H]1NC(=O)[C@H]2CCCN2C(=O)CN(Cc2ccccc2)C(=O)[C@@H](CC(C)C)NC(=O)[C@@H](C)N(C)C(=O)[C@H]2CCCN2C(=O)[C@H](Cc2ccccc2)NC1=O: PAMPA 0.48 × 10^-6 cm/s
- CC(C)C[C@@H]1NC(=O)[C@@H]2CCCN2C(=O)[C@H](CC(C)C)NC(=O)[C@@H](CC(C)C)N(C)C(=O)C[C@H](Cc2ccccc2)NC(=O)[C@H]2CCCN2C(=O)[C@H](Cc2ccccc2)NC1=O: PAMPA 3.1 × 10^-6 cm/s
- CCCN1CC(=O)N[C@@H](CC(C)C)C(=O)N(C)[C@H](CC(C)C)C(=O)N2CCC[C@@H]2C(=O)N[C@@H](CC(C)C)C(=O)N[C@@H](Cc2ccccc2)C(=O)N2CCC[C@@H]2C1=O: PAMPA 1.9 × 10^-6 cm/s
- CC(C)C[C@H]1NC(=O)[C@H]2CCCN2C(=O)[C@H](CC(C)C)N(C)C(=O)[C@@H](CC(C)C)NC(=O)C[C@H](Cc2ccccc2)NC(=O)[C@@H]2CCCN2C(=O)[C@H](Cc2ccccc2)NC1=O: PAMPA 2.6 × 10^-6 cm/s
- CCCN1CC(=O)N[C@H](CC(C)C)C(=O)N[C@@H](Cc2ccccc2)CC(=O)N2CCC[C@@H]2C(=O)N(C)[C@@H](CC(C)C)C(=O)N[C@@H](Cc2ccccc2)C(=O)N2CCC[C@H]2C1=O: PAMPA 1.8 × 10^-6 cm/s
- CC(C)C[C@@H]1NC(=O)[C@H]2CCCN2C(=O)C[C@H](Cc2ccccc2)NC(=O)CN(Cc2ccccc2)C(=O)C[C@H](Cc2ccccc2)NC(=O)[C@H]2CCCN2C(=O)[C@H](Cc2ccccc2)NC1=O: PAMPA 0.79 × 10^-6 cm/s
- CC(C)C[C@@H]1C(=O)N2CCC[C@H]2C(=O)N(Cc2ccccc2)CC(=O)N[C@@H](Cc2ccccc2)C(=O)N(C)[C@H](C)C(=O)N[C@H](CC(C)C)C(=O)N1C: PAMPA 7.4 × 10^-6 cm/s
- CCCN1CC(=O)N[C@@H](CC(C)C)C(=O)N(Cc2ccccc2)CC(=O)N2CCC[C@@H]2C(=O)N(Cc2ccccc2)CC(=O)N[C@@H](Cc2ccccc2)C(=O)N2CCC[C@H]2C1=O: PAMPA 0.62 × 10^-6 cm/s
- CC(C)C[C@@H]1C(=O)N2CCC[C@@H]2C(=O)N(Cc2ccccc2)CC(=O)N[C@@H](Cc2ccccc2)C(=O)N2CCC[C@@H]2C(=O)N(C)[C@@H](C)C(=O)N(C)[C@H](CC(C)C)C(=O)N1C: PAMPA 1.2 × 10^-6 cm/s

The first 3 entries again:

| SMILES | PAMPA (10^-6 cm/s) |
|---|---|
| CC(C)C[C@@H]1C(=O)N[C@@H](Cc2ccccc2)C(=O)N2CCC[C@H]2C(=O)N(C)[C@@H](C)C(=O)N(C)[C@@H](CC(C)C)C(=O)N[C@H](CC(C)C)C(=O)N2CCC[C@@H]2C(=O)N1C | 1.5 |
| CC(C)C[C@H]1NC(=O)[C@@H](C)NC(=O)[C@H]2CCCN2C(=O)[C@H](Cc2ccccc2)NC(=O)CN(Cc2ccccc2)C(=O)[C@H]2CCCN2C(=O)[C@@H](CC(C)C)NC1=O | 0.33 |
| CC(C)C[C@@H]1NC(=O)C[C@H](Cc2ccccc2)NC(=O)[C@H]2CCCN2C(=O)[C@H](Cc2ccccc2)NC(=O)[C@@H](CC(C)C)N(C)C(=O)[C@@H]2CCCN2C(=O)[C@@H](CC(C)C)N(C)C1=O | 3.8 |